pIC50: −log10 of the molar value. Several values for one entry are separate records, joined by “and”; a condition that tells them apart may be missing. Identical values can stand only once.
Molecular target: Cdk9/cyclinT1 (Homo sapiens, UniProt P50750)
Assay: Cdk9/cyclinT1 Alpha Screen protocol
Settings: read-out: CDK9_cyclinT1_AS2_IC50; neutral species; individual determinations

Sequences of proteins named here, by UniProt entry; tags and fusion partners are left off.
UniProt P50750, whole entry: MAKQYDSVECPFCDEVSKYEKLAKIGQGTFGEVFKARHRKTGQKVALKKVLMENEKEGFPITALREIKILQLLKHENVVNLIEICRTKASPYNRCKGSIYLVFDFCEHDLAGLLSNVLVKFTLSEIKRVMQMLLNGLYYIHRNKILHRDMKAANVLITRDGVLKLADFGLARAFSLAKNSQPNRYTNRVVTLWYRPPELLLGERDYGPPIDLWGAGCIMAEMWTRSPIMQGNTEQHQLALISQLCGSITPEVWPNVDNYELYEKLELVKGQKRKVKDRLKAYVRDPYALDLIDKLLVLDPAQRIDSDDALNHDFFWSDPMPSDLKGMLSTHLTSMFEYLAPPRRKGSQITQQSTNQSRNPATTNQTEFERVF
UniProt O60563, whole entry partner: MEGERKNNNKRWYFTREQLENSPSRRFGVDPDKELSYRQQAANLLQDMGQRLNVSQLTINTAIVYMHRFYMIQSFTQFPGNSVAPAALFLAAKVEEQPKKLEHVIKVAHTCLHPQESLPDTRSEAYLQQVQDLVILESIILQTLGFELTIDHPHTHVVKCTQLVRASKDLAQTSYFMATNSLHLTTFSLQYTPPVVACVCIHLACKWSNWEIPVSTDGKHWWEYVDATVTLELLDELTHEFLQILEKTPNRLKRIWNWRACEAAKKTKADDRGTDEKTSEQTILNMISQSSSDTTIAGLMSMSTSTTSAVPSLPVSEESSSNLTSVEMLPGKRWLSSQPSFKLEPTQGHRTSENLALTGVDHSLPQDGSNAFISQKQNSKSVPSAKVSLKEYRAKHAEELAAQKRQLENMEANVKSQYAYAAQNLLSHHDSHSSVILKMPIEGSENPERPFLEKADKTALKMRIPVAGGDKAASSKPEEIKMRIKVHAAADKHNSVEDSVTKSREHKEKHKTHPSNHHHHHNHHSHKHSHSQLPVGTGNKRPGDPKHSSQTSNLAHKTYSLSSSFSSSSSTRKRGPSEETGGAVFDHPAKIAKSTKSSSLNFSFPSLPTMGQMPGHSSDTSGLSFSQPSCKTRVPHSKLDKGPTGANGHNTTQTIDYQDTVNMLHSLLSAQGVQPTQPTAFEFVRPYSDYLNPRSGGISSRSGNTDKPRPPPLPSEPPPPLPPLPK

For `COC[C@@H](C)N[C@H]1CC[C@H](Nc2cc(-c3cccc(NCC4(C#N)CC4)n3)c(Cl)cn2)CC1` [Cmpd 400, 1-(((5′-chloro-2′-((trans-4-(((R)-1-methoxypropan-2-yl)amino)cyclohexyl)amino)-[2,4′-bipyridin]-6-yl)amino)methyl)cyclopropane-carbonitrile], the pIC50 was 9.68 and 9.41.

From patent US20130303507A1 (Novartis AG, priority 2011, published 2013)
